“And” between values parts separate entries of the source, which are not always exact repeats. Equal entries are not always repeated.
Molecular target: T1, Pf CaM (Plasmodium falciparum, UniProt P62203)
T1 construct: properties of the whole protein can be explored with differential scanning calorimetry; made in house; host or cells: E coli
Assay: biochemical
Assay type: binding
Conditions: K d, ITC, 25°C, 1 mmol/L CaCl2, one set of sites model
Excerpt: Titration curves were fitted with the models provided by the built‐in Origin software (MicroCal.).

## NCCCCCCNS(=O)(=O)c1cccc2c(Cl)cccc12 [W7, N‐(6‐aminohexyl)‐5‐chloro‐1‐naphthalenesulfonamide]
  Kd: 9.4 µM and 10 µM

— PMC7429351, “Comparison of ligand binding and conformational stability of human calmodulin with its homolog from the malaria parasite Plasmodium falciparum” (FASEB BioAdvances, 2020)
